Experimental data taken from patent US20050203013A1, “Methods for inhibiting vascular permeability” (priority 2002, published 2005).

Assays:
[1] = test system: VEGF induced vessel permeability; test: Miles assay (Example 2), VEGF165 challenge; format: in vivo, mice
Description: One of the problems with angiogenesis-dependent diseases is increased vessel permeability (due to high levels of VPF) which results in edema and loss of proteins. A decrease in vessel permeability is beneficial in those diseases. We have found, using the Miles assay ([…], et al., Cancer Res, 56:172-181 (1996)), that free and bound TNP-470 block permeability. Briefly, a dye, Evans Blue (1% in PBS), was injected i.v. to anesthesized mice. After 10 min, human recombinant VEGF165 (50 ng/50 μl) was injected intradermally into the back skin. Leakage of protein-bound dye was detected as blue spots on the underside of the back skin surrounding the injection site. After 20 min mice were euthanized. Then, the skin was excised, left in formamide for 5 days to be extracted and the solution read at 620 nm. Putative angiogenesis inhibitors such as free and conjugated TNP-470 were injected daily 3 days (30 mg/kg/day) prior to the VEGF challenge. The same was repeated on tumor-bearing mice to evaluate the effect of angiogenesis inhibitors on tumor vessel permeability.

[2] = test system: skin vessel permeability; test: Miles vascular permeability assay (Example 3); format: in vivo, SCID mice; details: VPF/VEGF intradermal
Description: SCID mice were injected subcutaneously (s.c.) with TNP-470 or HPMA copolymer-TNP-470 (30 mg/Kg TNP-equiv.) for three days, with Y27632 (50 nM s.c.) for 11 days, with angiostatin (200 mg/kg/day s.c.) for five days, or with saline (250 μl s.c.) for 5 days (n=12) prior to performing the Miles assay ([…] et al., 1996; Miles and Miles, 1952; Streit et al., 2000). Briefly, Evan's blue dye (100 μl of a 1% solution in 0.9% NaCl) was injected intravenously (i.v.) into mice. After 10 minutes, 50 μl of human VEGF165 (1 ng/μl), PAF (100 μM), CNF-1 (100 ng), histamine (1.2 μg/ml) or PBS (50 ul) were injected intradermally into the pre-shaved back skin. After 20 minutes, the animals were euthanized and an area of skin that included the blue spot resulting from leakage of the dye was removed. Evan's blue dye was extracted from the skin by incubation with formamide for 5 days at room temperature, and the absorbance of extracted dye was measured at 620 nm using a spectrophotometer. The unpaired Student t test was used for statistical analysis.

Question: Which results are given for “Herceptin: Anti-Erb B-2 antibody (Herceptin) from Genentech; indirect angiogenesis inhibitor”?
Answer: effect on VEGF induced vessel permeability [1]: no effect; effect on VPF/VEGF-induced vessel permeability [2]: no significant effect
